Test results as given in US20260384410A1, “PESTICIDALLY ACTIVE CYCLIC AMINE COMPOUNDS” (published 2026).

Tested on: Tetranychus urticae
Test: Tetranychus urticae (Two-Spotted Spider Mite): Feeding/Contact Activity
Conditions: for mortality at an application rate of 12.5 ppm or even lower: bean leaf discs, mixed population (mobile stages), 8 days after infestation; for % mortality: comparison test as in Example B1
Description: Example B1: Tetranychus urticae (Two-Spotted Spider Mite): Feeding/Contact Activity
Bean leaf discs on agar in 24-well microtiter plates were sprayed with aqueous test solutions prepared from 10′000 ppm DMSO stock solutions. After drying the leaf discs were infested with a mite population of mixed ages. The samples were assessed for mortality on mixed population (mobile stages) 8 days after infestation.

Compound	mortality at an application rate of 12.5 ppm or even lower	% mortality (0.2 ppm) [%]	% mortality (0.8 ppm) [%]	% mortality (3 ppm) [%]	% mortality (12.5 ppm) [%]	% mortality (50 ppm) [%]	% mortality (200 ppm) [%]
CCNS(=O)(=O)C1CCN(C(=O)c2cc(C#N)c(-c3ccc4c(c3)OC(F)(F)O4)nc2COC)CC1	at least 80%	–	–	–	–	–	–
CCN(C)S(=O)(=O)C1CCN(C(=O)c2cc(C#N)c(-c3ccc4c(c3)OC(F)(F)O4)nc2C)CC1	at least 80%	–	–	–	–	–	–
CN(C)S(=O)(=O)C1CCN(C(=O)c2cc(C#N)c(-c3ccc(C(F)(F)F)cc3)nc2C(F)(F)F)CC1	–	0	0	0	80	100	100
CCNS(=O)(=O)C1CCN(C(=O)c2cc(C#N)c(-c3ccc4c(c3)OC(F)(F)O4)nc2C(F)F)CC1	at least 80%	–	–	–	–	–	–
CCN(C)S(=O)(=O)C1CCN(C(=O)c2cc(C#N)c(-c3ccc4c(c3)OC(F)(F)O4)nc2COC)CC1	at least 80%	–	–	–	–	–	–
CCN(C)S(=O)(=O)C1CCN(C(=O)c2cc(C#N)c(-c3ccc(C(F)(F)F)cc3)nc2C(F)(F)F)CC1	at least 80%	0	0	80	100	100	100
CCNS(=O)(=O)C1CCN(C(=O)c2cc(C#N)c(-c3ccc(C(F)(F)F)cc3)nc2C(F)(F)F)CC1	at least 80%	0	80	100	100	100	100
CNS(=O)(=O)C1CCN(C(=O)c2cc(C#N)c(-c3ccc(C(F)(F)F)cc3)nc2C(F)(F)F)CC1	–	0	0	0	80	100	100
CCN(C)S(=O)(=O)C1CCN(C(=O)c2cc(C#N)c(-c3ccc4c(c3)OC(F)(F)O4)nc2C(F)F)CC1	at least 80%	–	–	–	–	–	–
